{
  "sequences": {"note": "Protein sequences, listed by entry. Tags and fused reporters are not part of them.", "UniProt Q9Y2R2, whole entry": "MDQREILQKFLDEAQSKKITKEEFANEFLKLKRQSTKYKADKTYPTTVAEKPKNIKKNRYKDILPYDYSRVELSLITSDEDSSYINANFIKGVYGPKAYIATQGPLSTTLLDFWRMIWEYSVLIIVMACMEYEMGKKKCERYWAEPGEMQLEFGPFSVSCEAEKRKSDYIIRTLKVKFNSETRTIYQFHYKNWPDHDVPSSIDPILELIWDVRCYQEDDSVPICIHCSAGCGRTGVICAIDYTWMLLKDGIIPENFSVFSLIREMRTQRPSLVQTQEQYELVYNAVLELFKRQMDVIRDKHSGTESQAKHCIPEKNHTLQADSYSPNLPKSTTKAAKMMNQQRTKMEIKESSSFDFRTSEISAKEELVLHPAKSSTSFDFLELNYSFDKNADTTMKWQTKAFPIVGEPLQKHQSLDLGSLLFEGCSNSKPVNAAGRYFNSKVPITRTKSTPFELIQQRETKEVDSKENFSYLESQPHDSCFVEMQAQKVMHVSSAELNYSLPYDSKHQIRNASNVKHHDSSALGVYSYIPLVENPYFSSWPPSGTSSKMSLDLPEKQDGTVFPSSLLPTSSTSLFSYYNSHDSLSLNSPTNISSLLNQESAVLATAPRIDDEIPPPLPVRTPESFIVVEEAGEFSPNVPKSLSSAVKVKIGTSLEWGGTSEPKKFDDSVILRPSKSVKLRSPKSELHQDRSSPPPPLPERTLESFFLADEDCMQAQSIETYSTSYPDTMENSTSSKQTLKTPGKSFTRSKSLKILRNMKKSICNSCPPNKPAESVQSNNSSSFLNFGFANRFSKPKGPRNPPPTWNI", "UniProt P51452, whole entry, species assumed": "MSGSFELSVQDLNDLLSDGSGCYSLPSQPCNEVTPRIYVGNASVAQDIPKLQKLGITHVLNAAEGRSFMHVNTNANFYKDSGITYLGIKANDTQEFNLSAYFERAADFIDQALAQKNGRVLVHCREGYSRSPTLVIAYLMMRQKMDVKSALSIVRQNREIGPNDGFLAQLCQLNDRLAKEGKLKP"},
  "source": "paper PMC3288537",
  "about": "(ACS Chemical Biology, 2011)",
  "key": {"LYP": {"target": "LYP (Homo sapiens, UniProt Q9Y2R2)", "assay": "Dose-response OMFP phosphatase assay, LYP", "format": "biochemical", "conditions": "ratio of IC50 values"}, "PTP1B": {"target": "T1, PTP1B (Homo sapiens, UniProt P18031)", "T1 sequence (P18031 1-435)": "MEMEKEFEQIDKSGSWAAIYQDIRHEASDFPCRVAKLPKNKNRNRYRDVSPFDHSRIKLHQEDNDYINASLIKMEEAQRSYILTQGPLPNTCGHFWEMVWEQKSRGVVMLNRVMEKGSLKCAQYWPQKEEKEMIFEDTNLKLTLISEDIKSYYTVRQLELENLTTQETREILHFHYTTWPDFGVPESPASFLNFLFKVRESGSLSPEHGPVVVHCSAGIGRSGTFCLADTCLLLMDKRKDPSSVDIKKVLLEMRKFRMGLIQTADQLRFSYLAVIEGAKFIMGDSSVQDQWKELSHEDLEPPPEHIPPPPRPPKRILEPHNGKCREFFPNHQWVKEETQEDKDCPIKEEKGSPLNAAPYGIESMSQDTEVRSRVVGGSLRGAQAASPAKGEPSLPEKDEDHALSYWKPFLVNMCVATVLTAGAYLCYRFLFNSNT", "assay": "Dose-response OMFP phosphatase assay, PTP1B", "format": "biochemical", "conditions": "ratio of IC50 values"}, "HePTP": {"target": "T2, HePTP (Homo sapiens, UniProt P35236)", "T2 sequence (P35236 1-360)": "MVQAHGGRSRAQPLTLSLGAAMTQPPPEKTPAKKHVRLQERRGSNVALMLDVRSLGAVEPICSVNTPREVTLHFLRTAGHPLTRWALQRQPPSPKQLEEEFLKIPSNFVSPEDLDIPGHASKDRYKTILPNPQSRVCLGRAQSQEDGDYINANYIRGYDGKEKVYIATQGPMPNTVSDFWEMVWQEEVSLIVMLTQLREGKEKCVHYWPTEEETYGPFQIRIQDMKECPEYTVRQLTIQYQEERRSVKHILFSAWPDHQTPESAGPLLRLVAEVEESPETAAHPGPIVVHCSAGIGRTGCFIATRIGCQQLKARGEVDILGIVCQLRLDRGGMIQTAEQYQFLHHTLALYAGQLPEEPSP", "assay": "Dose-response OMFP phosphatase assay, HePTP", "format": "biochemical", "method_in_brief": "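Compound given as a ten-point 2-fold series from DMSO dilutions. Kinetic fluorescence at ex 485/em 528 nm over 10 min; slopes fitted by sigmoidal variable-slope regression for IC50.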"}, "STEP": {"target": "T3, STEP (Homo sapiens, UniProt P54829)", "T3 sequence (P54829 1-565)": "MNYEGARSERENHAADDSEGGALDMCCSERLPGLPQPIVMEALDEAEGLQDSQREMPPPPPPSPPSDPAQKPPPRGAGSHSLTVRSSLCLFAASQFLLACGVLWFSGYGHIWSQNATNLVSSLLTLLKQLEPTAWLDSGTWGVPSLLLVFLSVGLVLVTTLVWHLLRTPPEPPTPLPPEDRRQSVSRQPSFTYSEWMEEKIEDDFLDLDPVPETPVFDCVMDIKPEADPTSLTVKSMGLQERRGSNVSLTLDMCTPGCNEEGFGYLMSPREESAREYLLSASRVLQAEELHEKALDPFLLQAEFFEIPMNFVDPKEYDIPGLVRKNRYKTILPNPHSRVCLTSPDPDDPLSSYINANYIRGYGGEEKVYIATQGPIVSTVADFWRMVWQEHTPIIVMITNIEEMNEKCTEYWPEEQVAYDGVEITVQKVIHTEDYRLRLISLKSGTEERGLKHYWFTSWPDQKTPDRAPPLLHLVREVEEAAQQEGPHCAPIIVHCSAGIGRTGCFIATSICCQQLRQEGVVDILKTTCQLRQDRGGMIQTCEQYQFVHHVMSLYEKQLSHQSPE", "assay": "Dose-response OMFP phosphatase assay, STEP", "format": "biochemical", "conditions": "ratio of IC50 values"}, "SHP2": {"target": "SHP2 (Homo sapiens, UniProt Q06124)", "assay": "Dose-response OMFP phosphatase assay, SHP2", "format": "biochemical", "conditions": "ratio of IC50 values", "method_in_brief": "(§1)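 Ten-point 2-fold dilution series of test compound prepared in DMSO. Fluorescence (ex 485/em 528 nm) read in kinetic mode over 10 min; progress-curve slopes taken as activity. IC50 by nonlinear regression (sigmoidal, variable slope).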"}, "TCPTP": {"target": "T4, TCPTP (Homo sapiens, UniProt P17706)", "T4 sequence (P17706 1-415)": "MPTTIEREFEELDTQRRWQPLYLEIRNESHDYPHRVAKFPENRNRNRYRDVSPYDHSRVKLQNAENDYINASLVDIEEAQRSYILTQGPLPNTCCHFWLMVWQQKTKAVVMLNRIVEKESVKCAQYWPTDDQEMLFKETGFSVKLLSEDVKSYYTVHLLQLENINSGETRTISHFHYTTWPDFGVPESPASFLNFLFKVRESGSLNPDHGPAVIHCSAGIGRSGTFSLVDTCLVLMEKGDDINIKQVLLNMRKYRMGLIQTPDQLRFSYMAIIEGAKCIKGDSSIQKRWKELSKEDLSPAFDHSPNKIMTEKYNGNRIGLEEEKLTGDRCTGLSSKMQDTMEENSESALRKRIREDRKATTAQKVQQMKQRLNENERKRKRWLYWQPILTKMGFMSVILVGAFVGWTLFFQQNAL", "assay": "Dose-response OMFP phosphatase assay, TCPTP", "format": "biochemical", "conditions": "ratio of IC50 values", "method_in_brief": "as §1"}, "[1]": {"system": "ERK1/2 and p38 phosphorylation in splenocytes", "assay": "Immunoblot of phosphorylation levels in spleen of mice injected i.p.", "format": "in vivo, C57B6 mice", "conditions": "mouse spleen", "method_in_brief": "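C57B6 mice given test compound i.p. at 3 or 5 mg kg-1, or vehicle; spleens taken 3 h or 6 h later (3 mice per dose and time). Spleen sonicated in Tris pH 7.4 buffer with phosphatase and protease inhibitors; 800 × g supernatant used. Blotted for pS473-AKT, pS23-HePTP, pERK1/2 and pp38, normalised to total protein then GAPDH. ANOVA/Tukey or t-test.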"}, "VHR": {"target": "VHR (Homo sapiens, UniProt P51452)", "assay": "Dose-response OMFP phosphatase assay, VHR", "format": "biochemical", "conditions": "ratio of IC50 values"}, "HePTP H237A mutant": {"target": "T5, HePTP H237A mutant (Homo sapiens, UniProt P35236, H258A)", "T5 sequence (P35236 22-360 H258A limits assumed)": "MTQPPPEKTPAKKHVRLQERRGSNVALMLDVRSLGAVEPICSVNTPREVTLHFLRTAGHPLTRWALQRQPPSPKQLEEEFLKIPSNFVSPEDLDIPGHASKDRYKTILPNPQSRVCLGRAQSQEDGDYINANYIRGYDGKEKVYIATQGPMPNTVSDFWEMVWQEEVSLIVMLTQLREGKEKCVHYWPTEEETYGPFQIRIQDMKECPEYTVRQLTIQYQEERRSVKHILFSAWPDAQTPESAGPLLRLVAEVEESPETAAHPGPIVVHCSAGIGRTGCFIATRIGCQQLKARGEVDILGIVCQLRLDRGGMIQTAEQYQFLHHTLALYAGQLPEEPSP", "assay": "Dose-response OMFP phosphatase assay, HePTP H237A mutant", "format": "biochemical"}},
  "data": [
    {"smiles": "O=C(O)c1ccccc1-c1ccc(/C=c2\\sc3nc4cc(Br)cnc4n3c2=O)o1", "note": "[Compound 1]", "values": [
      {"measurement": "selectivity for HePTP over LYP", "setting": "LYP", "value": 9, "unit": "fold"},
      {"measurement": "selectivity for HePTP over PTP1B", "setting": "PTP1B", "value": 8, "unit": "fold"},
      {"measurement": "selectivity for HePTP over the most similar enzymes in the in vitro assay", "setting": "HePTP", "value": "5–30 fold"},
      {"measurement": "selectivity for HePTP over STEP", "setting": "STEP", "value": 30, "unit": "fold"},
      {"measurement": "selectivity for HePTP over SHP2", "setting": "SHP2", "value": 5, "unit": "fold"},
      {"measurement": "selectivity for HePTP over TCPTP", "setting": "TCPTP", "value": 5, "unit": "fold"},
      {"measurement": "pp38 level relative to vehicle control", "setting": "[1]; i.p. 3 mg/kg for 3 h", "value": "1.67 ± 0.16"},
      {"measurement": "pERK1/2 level relative to vehicle control", "setting": "[1]; i.p. 3 mg/kg for 6 h", "value": "2.26 ± 0.46"},
      {"measurement": "pp38 level relative to vehicle control", "setting": "[1]; i.p. 3 mg/kg for h (time not given)", "value": "1.75 ± 0.13"},
      {"measurement": "pERK1/2 level relative to vehicle control", "setting": "[1]; i.p. 5 mg/kg for 6 h", "value": "1.97 ± 0.16"},
      {"measurement": "pp38 level relative to vehicle control", "setting": "[1]; i.p. 5 mg/kg for 6 h", "value": "2.33 ± 0.33"},
      {"measurement": "selectivity for HePTP over VHR", "setting": "VHR", "value": 9, "unit": "fold"},
      {"measurement": "fold less active against H237A mutant compared to wt HePTP", "setting": "HePTP H237A mutant", "value": "more than 13 fold"}
    ]}
  ]
}
